{
  "source": "paper PMC2999882",
  "about": "(Molecular pharmacology, 2008)",
  "origin": "cited, not measured here",
  "test_system": "α4β2 tyrosine to phenylalanine mutant",
  "settings": "cited from earlier work",
  "data": [
    {"compound": "COc1cc(O)ccc1/C=C1\\CCCN=C1c1cccnc1", "note": "[4OH-GTS-21]", "values": [
      {"measurement": "fold increase in efficacy by the tyrosine to phenylalanine mutation in α4β2", "value": 200, "unit": "fold"}
    ]}
  ]
}
